The values below come from US20160168540A1, “COMPOSITION FOR MAINTAINING PLATELET FUNCTION” (KYOTO UNIVERSITY, priority 2013, published 2016).

Protein sequences, listed by entry. Tags and fused reporters are not part of them. Residues count along the entry.
UniProt P78536, 215-824 limits assumed: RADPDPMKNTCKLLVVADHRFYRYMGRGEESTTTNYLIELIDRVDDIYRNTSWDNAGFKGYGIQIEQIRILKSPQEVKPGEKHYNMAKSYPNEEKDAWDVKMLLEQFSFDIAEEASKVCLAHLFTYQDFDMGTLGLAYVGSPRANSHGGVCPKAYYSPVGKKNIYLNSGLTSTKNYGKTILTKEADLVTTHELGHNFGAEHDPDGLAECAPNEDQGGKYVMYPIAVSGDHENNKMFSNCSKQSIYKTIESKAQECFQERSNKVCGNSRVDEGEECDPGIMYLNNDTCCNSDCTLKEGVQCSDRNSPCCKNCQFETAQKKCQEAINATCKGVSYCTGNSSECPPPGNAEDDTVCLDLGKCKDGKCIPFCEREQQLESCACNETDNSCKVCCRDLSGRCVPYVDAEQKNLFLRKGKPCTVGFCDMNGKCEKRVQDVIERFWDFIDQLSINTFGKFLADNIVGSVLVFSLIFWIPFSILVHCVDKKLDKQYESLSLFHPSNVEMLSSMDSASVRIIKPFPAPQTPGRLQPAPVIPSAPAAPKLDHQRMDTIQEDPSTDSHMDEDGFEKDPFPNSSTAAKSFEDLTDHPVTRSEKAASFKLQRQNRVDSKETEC

The target of the experiment is TACE (ADAM17) (Homo sapiens, UniProt P78536). The experiment in a line: TACE (ADAM17) inhibition test. Type of experiment: biochemical. Particulars: read-out: TACE IC50; fluorescent synthetic substrate, 37° C. for 1.5 hours. The source says:
The nucleotide sequence of TACE has been reported by Moss et al. (Moss, M. L. et al., Nature 1997, vol. 385, pp. 733-736). Based on this information, the cDNA of TACE was obtained according to the prescribed method from THP-1 cells or the like, and then incorporated the cDNA into an expression vector. Next, this vector was transformed into mammalian cells or insect cells, and TACE protein was expressed. The TACE protein was isolated, and used as an enzyme. Further, a fluorescent synthetic substrate Nma(N-methylanthranilic acid)-Leu-Ala-Gln-Ala-Val-Arg-Ser-Ser-Lys(Dnp(dinitrophenyl))-D-Arg-NH2 including the TACE-cleaved sequence of a membrane-bound TNF was used as a substrate. […] Enzyme activity was then determined by measuring with a fluorescence intensity meter (Labsystems, Fluoroskan Ascent) at an excitation wavelength of 355 nm and a measurement wavelength of 460 nm. […]

Bounds are passed on as bounds.

By IC50 is commonly meant the point on the concentration scale where inhibition reaches its midpoint.

In the case of `Cc1cccn(CC2(c3ccc(/C=C/C4CCCCC4)cc3)NC(=O)NC2=O)c1=O` (racemic), the IC50 is > 100 nM.
